Here are results for 1 substance from patent US20080003569A1, “Method for the Detection of Intracellular Parameters With Luminescent Protein Probes for the Screening of Molecules Capable of Altering Said Parameters” (priority 2004, published 2008).

The chains behind the UniProt entries cited, without tags or fusion partners. Where a name states a change or a piece, a line headed by the entry shows the natural chain unless it says otherwise.
UniProt P41146: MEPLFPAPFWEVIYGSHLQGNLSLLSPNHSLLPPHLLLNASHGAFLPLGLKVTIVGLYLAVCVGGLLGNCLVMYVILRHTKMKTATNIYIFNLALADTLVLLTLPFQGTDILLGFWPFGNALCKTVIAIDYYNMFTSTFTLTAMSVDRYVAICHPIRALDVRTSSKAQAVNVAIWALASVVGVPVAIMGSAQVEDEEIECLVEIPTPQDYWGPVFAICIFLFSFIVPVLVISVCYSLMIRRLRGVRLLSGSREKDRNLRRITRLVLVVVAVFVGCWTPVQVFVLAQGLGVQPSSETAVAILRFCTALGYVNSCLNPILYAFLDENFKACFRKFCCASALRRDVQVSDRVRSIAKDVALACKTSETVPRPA

The test has as its target wild-type ORL1 receptor (Homo sapiens, UniProt P41146). The following applies: control CHO cells expressing an ORL1 wild-type receptor, stimulated with nociceptine.

Regarding Nociceptine, the increase in cps entry is recorded as “does not induce any increase in cps”.
